The values below are quoted from earlier work in US20250368636A1, “NOVEL HETEROCYCLIC COMPOUND, SALT THEREOF, AND L[…] COMPOSITION” (The University of Electro-Communications, priority 2022, published 2025).

Protein sequences, listed by entry. Tags and fused reporters are not part of them.
UniProt P08659, whole entry: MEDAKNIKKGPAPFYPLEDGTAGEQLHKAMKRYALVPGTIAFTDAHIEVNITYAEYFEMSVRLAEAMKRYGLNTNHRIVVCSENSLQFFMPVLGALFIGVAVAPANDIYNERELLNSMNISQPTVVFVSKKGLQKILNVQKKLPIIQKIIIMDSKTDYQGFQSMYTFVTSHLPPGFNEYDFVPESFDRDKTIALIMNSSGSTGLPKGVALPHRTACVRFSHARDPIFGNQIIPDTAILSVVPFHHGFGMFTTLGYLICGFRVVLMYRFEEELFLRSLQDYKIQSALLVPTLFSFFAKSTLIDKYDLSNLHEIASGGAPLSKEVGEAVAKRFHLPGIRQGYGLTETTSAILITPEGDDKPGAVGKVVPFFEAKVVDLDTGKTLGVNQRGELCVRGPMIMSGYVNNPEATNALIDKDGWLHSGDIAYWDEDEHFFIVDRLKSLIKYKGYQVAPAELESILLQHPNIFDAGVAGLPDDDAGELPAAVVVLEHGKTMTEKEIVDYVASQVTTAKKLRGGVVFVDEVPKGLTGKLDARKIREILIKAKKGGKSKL

For the data set, the target named is firefly luciferase (Luc) (Photinus pyralis, UniProt P08659). Conditions: in the presence of Luc, ATP and Mg2+; background, prior art; cited from earlier work.

As to `O=C(O)[C@H]1CSC(c2nc3ccc(O)cc3s2)=N1` [firefly luciferin (LH2), firefly luciferin], the “Emission wavelength / peak wavelength of emission spectrum” value is listed as “approximately 560 nm”.
